Earlier results as cited in US10588879B2, “Treatment of age-related macular degeneration” (Aurin Biotech Inc., priority 2011, dated 2020).

Test system: paroxysmal nocturnal hemoglobinemia
Details: paroxysmal nocturnal hemoglobinemia patients; cited from earlier work

B1: eculizumab: humanized monoclonal antibody which blocks C5 conversion of the alternative pathway (antibody, chains of the INN, looked up)
heavy: QVQLVQSGAEVKKPGASVKVSCKASGYIFSNYWIQWVRQAPGQGLEWMGEILPGSGSTEYTENFKDRVTMTRDTSTSTVYMELSSLRSEDTAVYYCARYFFGSSPNWYFDVWGQGTLVTVSSASTKGPSVFPLAPCSRSTSESTAALGCLVKDYFPEPVTVSWNSGALTSGVHTFPAVLQSSGLYSLSSVVTVPSSNFGTQTYTCNVDHKPSNTKVDKTVERKCCVECPPCPAPPVAGPSVFLFPPKPKDTLMISRTPEVTCVVVDVSQEDPEVQFNWYVDGVEVHNAKTKPREEQFNSTYRVVSVLTVLHQDWLNGKEYKCKVSNKGLPSSIEKTISKAKGQPREPQVYTLPPSQEEMTKNQVSLTCLVKGFYPSDIAVEWESNGQPENNYKTTPPVLDSDGSFFLYSRLTVDKSRWQEGNVFSCSVMHEALHNHYTQKSLSLSLG
light: DIQMTQSPSSLSASVGDRVTITCGASENIYGALNWYQQKPGKAPKLLIYGATNLADGVPSRFSGSGSGTDFTLTISSLQPEDFATYYCQNVLNTPLTFGQGTKVEIKRTVAAPSVFIFPPSDEQLKSGTASVVCLLNNFYPREAKVQWKVDNALQSGNSQESVTEQDSKDSTYSLSSTLTLSKADYEKHKVYACEVTHQGLSSPVTKSFNRGEC
  cases in which treatment is effective: 49%
